Experimental data: US10294227B2, “Compounds” (UNIVERSITY COURT OF THE UNIVERSITY OF EDINBURGH, priority 2015, dated 2019)

Columns and labels:
[1] = tested on: MCF7 cells; test: Cell viability assay (PrestoBlue); details: Homo sapiens, MCF7, 120 h, read-out: Antiproliferative activity (EC50) MCF7
[2] = target: SRC (Homo sapiens (Human), UniProt P12931); test: Kinase screening assay (IC50)
[3] = tested on: MDA-MB-231 cells; test: Cell viability assay (PrestoBlue); details: Homo sapiens
[4] = tested on: NCI-H358; test: cells; details: Homo sapiens, NCI-H358, 120 h, read-out: Antiproliferative activity (EC50) NCI-H358
[5] = tested on: SYF fibroblasts (deficient for Src, Yes, and Fyn); test: Cell viability assay (PrestoBlue); details: Mus musculus, Fibroblast
[6] = tested on: MEF; test: cells; details: Mus musculus, 120 h, read-out: Antiproliferative activity (EC50) MEF
[7] = tested on: active (phosphorylated) SRC in HCT116 cells; details: western blot
[8] = tested on: zebrafish embryos; details: treatment for 2 d
[9] = tested on: zebrafish tail fin regeneration; details: 100 μM
[10] = tested on: PC3; test: cells; details: Homo sapiens, PC-3, 120 h, read-out: Antiproliferative activity (EC50) PC3
[11] = tested on: cancer cell viability; details: 10 μM of GNF-2
[12] = tested on: BT549; test: cells; details: Homo sapiens, BT-549, 120 h, read-out: Antiproliferative activity (EC50) BT549
[13] = tested on: phospho-SRC, phospho-FAK, pAKT in MDA-MB-231 cells; details: Western blot
[14] = In vivo PK (iv and po); details: female mice, blood and plasma levels studied for 8 hours
[15] = tested on: HT1080; test: cells; details: Homo sapiens, HT-1080, 120 h, read-out: Antiproliferative activity (EC50) HT1080
[16] = MDA-MB-231, 120 h, read-out: Antiproliferative activity (EC50) MDA-MB-231
[17] = 120 h, read-out: Antiproliferative activity (EC50) SYF (−/− Src)
[18] = read-out: Cell Screening (EC50) SYF cells (lack of Src)
[19] = read-out: Kinase Screening (IC50) SRC, Src Family
[20] = read-out: Target inhibition (IC50) SRC, 10 μM ATP

Cc1ccc(-c2nn(CCN3CCN(C)CC3)c3ncnc(N)c23)cc1 [Compound 103]
EC50 [1]: > 10000 nM
IC50 [2]: 100 to 1000 nM

Cc1ccc(-c2nn(CCN3CCN(CCN(C)C)CC3)c3ncnc(N)c23)cc1 [Compound 105, 1-[2-[4-(2-dimethylaminoethyl)piperazin-1-yl]ethyl]-3-(p-tolyl)pyrazolo[3,4-d]pyrimidin-4-amine]
EC50 [1]: > 10000 nM
IC50 [2]: 100 to 1000 nM

CN(C)CC1CCN(CCn2nc(-c3cnc4[nH]ccc4c3)c3c(N)ncnc32)CC1 [Compound 221, 1-[2-[4-(dimethylaminomethyl)-1-piperidyl]ethyl]-3-(1H-pyrrolo[2,3-b]pyridin-5-yl)pyrazolo[3,4-d]pyrimidin-4-amine]
EC50 [3, 16]: 1000 to 10000 nM

CN(C)C1CCN(CCn2nc(-c3cnc4[nH]ccc4c3)c3c(N)ncnc32)CC1 [Compound 402, 1-[2-[4-(dimethylamino)-1-piperidyl]ethyl]-3-(1H-pyrrolo[2,3-b]pyridin-5-yl)pyrazolo[3,4-d]pyrimidin-4-amine]
EC50 [1]: 1000 to 10000 nM

COc1cc(-c2nn(CCN3CCC(CN(C)C)CC3)c3ncnc(N)c23)ccc1NC(=O)OC(C)(C)C [Compound 503, tert-butyl N-[4-[4-amino-1-[2-[4-(dimethylaminomethyl)-1-piperidyl]ethyl]pyrazolo[3,4-d]pyrimidin-3-yl]-2-methoxy-phenyl]carbamate]
EC50 [4]: 100 to 1000 nM
EC50 [5, 17]: > 10000 nM
EC50 [1]: 100 to 1000 nM
EC50 [6]: 1000 to 10000 nM

COc1cc(-c2nn(CCN3CCC(N(C)C)CC3)c3ncnc(N)c23)ccc1NC(=O)OC(C)(C)C [Compound 506, tert-butyl N-[4-[4-amino-1-[2-[4-(dimethylamino)-1-piperidyl]ethyl]pyrazolo[3,4-d]pyrimidin-3-yl]-2-methoxy-phenyl]carbamate]
EC50 [4]: < 100 nM
inhibition of active (phosphorylated) SRC in HCT116 cells [7]: inhibition under 506 treatment was verified by western blot
effect on the development of the embryos [8]: minimal effect on the development of the embryos
other phenotypic or toxic effect on the embryo [9]: did not show any other phenotypic or toxic effect on the embryo
EC50 [10]: 1000 to 10000 nM
increment of EC50 values of compound 506 by GNF-2 [11]: up to 50 fold
EC50 [12]: > 10000 nM
SRC auto-phosphorylation (Y416 phospho-SRC) [13]: strong inhibition
SRC-mediated phosphorylation of FAK (phospho-FAK) [13]: strong inhibition
EC50 [5, 17]: > 10000 nM
EC50 [5, 18]: 21400 nM
EC50 [1]: < 100 nM
toxic effects in PK study [14]: no toxic effects
EC50 [6]: > 10000 nM
EC50 [15]: > 10000 nM
IC50 [2]: < 0.5 nM
potency (IC50) against Src, in words [2]: sub-nano molar; also recorded: sub-nanoM
IC50 [2, 19]: < 10 nM
IC50 [2, 20]: < 10 nM
activity at 1 µM ([2]; read-out: enzymatic activity of c-Src (% of activity)): 0 to 0.5%

COc1cc(-c2nn(CCN3CCC(N4CCCC4)CC3)c3ncnc(N)c23)ccc1NC(=O)OC(C)(C)C [Compound 518, tert-butyl N-[4-[4-amino-1-[2-(4-pyrrolidin-1-yl-1-piperidyl)ethyl]pyrazolo[3,4-d]pyrimidin-3-yl]-2-methoxy-phenyl]carbamate]
EC50 [5, 17]: > 10000 nM
EC50 [5, 18]: 15100 nM
EC50 [1]: < 100 nM
IC50 [2, 19]: < 10 nM
IC50 [2, 20]: < 10 nM

COc1cc(-c2nn(CCN3CCC(N4CCCCC4)CC3)c3ncnc(N)c23)ccc1NC(=O)OC(C)(C)C [Compound 519, tert-butyl N-[4-[4-amino-1-[2-[4-(1-piperidyl)-1-piperidyl]ethyl]pyrazolo[3,4-d]pyrimidin-3-yl]-2-methoxy-phenyl]carbamate]
EC50 [5, 17]: 1000 to 10000 nM
EC50 [5, 18]: 8500 nM
EC50 [1]: 100 to 1000 nM

COc1cc(-c2nn(CCN3CCC(N(C)C)CC3)c3ncnc(N)c23)ccc1NC(=O)CC(C)(C)C [Compound 526, N-[4-[4-amino-1-[2-[4-(dimethylamino)-1-piperidyl]ethyl]pyrazolo[3,4-d]pyrimidin-3-yl]-2-methoxy-phenyl]-3,3-demethyl-butanamide]
EC50 [5, 17]: > 10000 nM

COc1cc(-c2nn(CCN3CCC(N(C)C)CC3)c3ncnc(N)c23)ccc1NCc1ccccc1 [Compound 533, 3-[4-(benzylamino)-3-methoxy-phenyl]-1-[2-[4-(dimethylamino)-1-piperidyl]ethyl]pyrazolo[3,4-d]pyrimidin-4-amine]
EC50 [5, 17]: 1000 to 10000 nM
EC50 [5, 18]: 7040 nM
EC50 [1]: 100 to 1000 nM

COc1cc(-c2nn(CCN3CCC(N(C)C)CC3)c3ncnc(N)c23)ccc1NC(=O)NC(C)(C)C [Compound 540, 1-[4-[4-amino-1-[2-[4-(dimethylamino)-1-piperidyl]ethyl]pyrazolo[3,4-d]pyrimidin-3-yl]-2-methoxy-phenyl]-3-tert-butyl-urea]
EC50 [5, 17]: > 10000 nM
EC50 [1]: > 10000 nM

CN(C)C1CCN(CCn2nc(-c3ccc(NC(=O)OC(C)(C)C)cc3)c3c(N)ncnc32)CC1 [Compound 543]
EC50 [1]: 1000 to 10000 nM

CN(C)C1CCN(CCn2nc(-c3ccc(CC(=O)OC(C)(C)C)cc3)c3c(N)ncnc32)CC1 [Compound 553, tert-butyl 2-[4-[4-amino-1-[2-[4-(dimethylamino)-1-piperidyl]ethyl]pyrazolo[3,4-d]pyrimidin-3-yl]phenyl]acetate]
EC50 [5, 17]: > 10000 nM
EC50 [5, 18]: 15400 nM
EC50 [1]: 1000 to 10000 nM

COc1cc(-c2nn(CCN3CCC(N(C)C)CC3)c3ncnc(N)c23)ccc1CC(=O)OC(C)(C)C [Compound 565, tert-butyl 2-[4-[4-amino-1-[2-[4-(dimethylamino)-1-piperidyl]ethyl]pyrazolo[3,4-d]pyrimidin-3-yl]-2-methoxy-phenyl]acetate]
EC50 [5, 17]: > 10000 nM
EC50 [5, 18]: 15600 nM
EC50 [1]: 100 to 1000 nM

COc1cc(-c2nn(CCN3CCC(N(C)C)CC3)c3ncnc(N)c23)ccc1Cc1ncc(C)o1 [Compound 584, 1-[2-[4-(dimethylamino)-1-piperidyl]ethyl]-3-[3-methoxy-4-[(5-methyloxazol-2-yl)methyl]phenyl]pyrazolo[3,4-d]pyrimidin-4-amine]
EC50 [3, 16]: 100 to 1000 nM

Cc1nc(Nc2ncc(C(=O)Nc3c(C)cccc3Cl)s2)cc(N2CCN(CCO)CC2)n1 [Dasatinib, reference compound]
EC50 [4]: 1000 to 10000 nM
EC50 [10]: 1000 to 10000 nM
EC50 [12]: > 10000 nM
EC50 [5, 17]: 1000 to 10000 nM
EC50 [5, 18]: 1540 nM
EC50 [1]: < 100 nM
EC50 [6]: 1000 to 10000 nM
EC50 [15]: > 10000 nM
EC50 [3, 16]: < 100 nM
EC50 ([3]; MDA-MB-231, read-out: Cell Screening (EC50) MDA-MB-231): 13 nM

Entries after “also recorded” stand apart in the source; their conditions may differ. Like-named read-outs stand apart in the source and are kept apart here.
